Reference: publication PMC8630191, “Regulation of PP2A, PP4, and PP6 holoenzyme assembly by carboxyl-terminal methylation” (Scientific Reports, 2021)

Protein sequences, listed by entry. Tags and fused reporters are not part of them. Residues count along the entry.
UniProt P62714, 1-308, stated change not applied: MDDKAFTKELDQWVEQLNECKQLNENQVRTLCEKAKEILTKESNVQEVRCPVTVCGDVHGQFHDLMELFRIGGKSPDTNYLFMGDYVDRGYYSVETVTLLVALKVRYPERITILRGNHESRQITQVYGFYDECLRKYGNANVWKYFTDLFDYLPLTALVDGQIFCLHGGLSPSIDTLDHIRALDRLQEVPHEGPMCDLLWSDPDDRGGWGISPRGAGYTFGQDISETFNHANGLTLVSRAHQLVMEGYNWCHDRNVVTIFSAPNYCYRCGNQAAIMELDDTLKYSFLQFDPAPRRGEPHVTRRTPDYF

Molecular target: T1, 3xFLAG-tagged PP2Acβ ΔL mutant (Leu 309 deleted) (human, UniProt P62714, ΔL309)
T1 construct: PP2A catalytic subunit, beta isoform (PP2Acβ, PPP2CB), human, in p3XFLAG-CMV10; C-terminal Leu 309 deleted by inserting a stop codon; also called ΔL309
Test: affinity purification with mass spectrometry; 3xFLAG-tagged catalytic subunit (WT or ΔL) transfected in FreeStyle 293F cells; FLAG M2 affinity gel, 3 h at 4 °C; lysis and wash buffer 50 mM Tris pH 7.5, 500 mM NaCl, 0.5% Triton X-100; eluted with 3XFLAG peptide; label-free quantitative LC-MS/MS on unique peptides, three replicates
Details: partners not purified

- fold reduction of binding, ΔL against WT: ~4 fold
B1: PR65α, PP2A scaffolding (A) subunit (natural protein)
chain: not shown
notes: PP2A scaffolding subunit A, alpha isoform (PR65α)
